Data reported in PMC6474356.

Target: TR construct of eukaryotic elongation factor 2 kinase (eEF-2K) (UniProt O00418)
Test: native MS

Substance “Calmodulin (Ca2+-CaM) (from UniProt P0DP23 2-149) (natural protein)” has a stoichiometry N of 1.
